# Test system: A549 cells
# Assay: A549 proliferation assay in low-serine medium (CellTiter-Glo)
# Format: cell-based
# Conditions: Homo sapiens, 72 h, 3 days, low-serine medium (20 μM L-serine)
# Experimental: In highly proliferative, glycolytically active cells, PKM2 activation accelerates flux through glycolysis and induces a powerful dependence of cell proliferation on the non-essential amino acid serine (Kung et al., 2012). The effect of compounds of Formula (I) on A549 cell proliferation in low-serine medium was assessed using a luminescence assay of viable cell number (CellTiter-Glo® 2.0, Promega) duplexed with a fluorescent cytotoxicity assessment (CellTox™ Green, Promega). Cell culture reagents were from ThermoFisher unless specified otherwise. Assay reagents were from Sigma-Aldrich unless specified otherwise. Test Compounds were prepared as 10 mM DMSO stocks and dilution series prepared in DMSO for direct dilution into culture medium. […]
# Cells were incubated for 3 days in a humidified incubator (37° C., 5% CO2) at which point CellTox™ Green and CellTiter-Glo® reagents were prepared according to the manufacturer's instructions. […] Endpoint fluorescence was measured using a plate reader (PHERAstar® FSX, BMG Labtech).
# Following cytotoxicity determination, CellTiter-Glo® reagent was added to each well and the plate placed on an orbital shaker @450 rpm for 2 minutes to lyse cells. Plates were incubated in the dark for 15-30 minutes (20° C., ambient humidity and pCO2) prior to endpoint luminescence measurement (PHERAstar® FSX, BMG Labtech). […]
compound,measurement,value
"Cn1c2cc([S+](C)[O-])sc2c2cnn(Cc3cccc(N)c3)c(=O)c21 (stereo not shown) [TEPP-46, reference compound]",IC50,1.6 nM
